# What was measured:
# Chains of the proteins cited; added tags and fusions are not shown. Residues count along the entry.
# UniProt O60894, 27-148 partner: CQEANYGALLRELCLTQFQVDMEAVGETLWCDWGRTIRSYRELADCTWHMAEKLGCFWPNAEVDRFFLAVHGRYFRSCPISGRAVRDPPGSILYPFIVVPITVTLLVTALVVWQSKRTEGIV
# hAMY1R [1] = target: T1, hAMY1R (Homo sapiens, UniProt O60894+P30988); assay: hAMY1R cAMP functional activity (HTRF); type: cell-based; details: ±SE; UMUC3 cells overexpressing hAMY1R; relative EC50
# T1 construct: expressed in transfected cells
# Experimental: (§1) The AMY1 and CT receptors are GPCRs that are functionally coupled to Gas proteins. […] In vitro activity of peptides is measured by the amount of cAMP formed in human AMY1R and CTR overexpressed cells.
# Human AMY1R stable cell lines are generated by further transfecting human RAMP1-pCMVpuroPB (T14213) into UMUC3 hCTR clone cells. After selection, the mRNA levels human RAMP1 from different clones are measured to confirm the expression of human AMY1R.
# (§2) hAMY1R cells are cultured in MEM 1× (Corning) supplemented with 10% FBS, 1% antibiotic/antimycotic solution, 1 mM sodium pyruvate, 1×MEM NEAA, 1× GlutaMAX-I, 200 μg/mL hygromycin B, and 0.4 μg/mL puromycin. The hCTR cells are cultured in the same medium lacking the puromycin. Cultured cells are grown to 70% confluency and then incubated overnight with fresh medium.
# Peptides diluted in DMSO are added (200 nL/well) in a 1:3 dilution series using ECHO acoustic liquid handler (Beckman). Cultured cells are detached with TrypLE Express (Gibco), resuspended in assay buffer, and 10 μL containing 1200 cells/well (hCTR) or 1500 cells/well (hAMY1R) are dispensed into each well. The plates are incubated at room temperature for 1 hour.
# (§3) The amount of intracellular cAMP is quantitated using HTRF technology (Homogeneous Time Resolved Fluorescence; Cisbio) as per vendor instructions. […]
# human CT receptors = target: T2, human CT receptors (Homo sapiens, UniProt P30988); assay: hCTR cAMP functional activity (HTRF); type: cell-based; details: ±SE; UMUC3 cells overexpressing hCTR; relative EC50
# T2 construct: expressed in transfected cells
# T2 sequence (P30988 25-474): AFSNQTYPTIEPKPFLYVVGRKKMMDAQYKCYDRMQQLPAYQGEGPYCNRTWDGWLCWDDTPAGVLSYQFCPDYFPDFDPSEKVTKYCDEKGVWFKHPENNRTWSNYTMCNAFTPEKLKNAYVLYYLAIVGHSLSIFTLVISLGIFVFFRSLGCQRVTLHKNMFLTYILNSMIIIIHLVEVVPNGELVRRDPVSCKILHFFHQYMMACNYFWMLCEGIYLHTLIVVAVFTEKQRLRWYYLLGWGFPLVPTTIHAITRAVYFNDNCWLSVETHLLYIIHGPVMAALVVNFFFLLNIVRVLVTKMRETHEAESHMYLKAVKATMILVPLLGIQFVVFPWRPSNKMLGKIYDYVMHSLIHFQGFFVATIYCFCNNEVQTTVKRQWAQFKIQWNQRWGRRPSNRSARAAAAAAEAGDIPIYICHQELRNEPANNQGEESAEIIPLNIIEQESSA
# Experimental: as §1
# Human CT receptors are stably expressed in human urinary bladder cells (UM-UC-3, or UMUC3) under control of a pcDNA expression vector. […] After 20 days under selection, the mRNA levels from different clones are measured to confirm the expression of hCTR. To determine the function of over-expressed hCTR cells, the intracellular cAMP levels in response to salmon calcitonin are measured and compared to the expression of hCTR mRNA in each clone.
# as §2
# Peptides diluted in DMSO are added (200 nL/well) in a 1:3 dilution series using ECHO acoustic liquid handler (Beckman). […]
# as §3
# hAMY1R [2] = target: T1, hAMY1R; assay: hAMY1R competitive radioligand binding filter assay (125I-rAMY); details: ± SE; membranes of hAMY1R overexpressing cells
# Experimental: (§4) The equilibrium dissociation constants (Kd) for the various receptor/radioligand interactions are determined from saturation binding analysis using the same reagents and buffers as described below for compound testing.
# The receptor binding affinity (Ki) of rAMY, hCT, and hAMY agonist peptides are determined from a competitive radioligand binding filter assay. The assay buffer consists of (in mM) 50 HEPES, pH 7.1, 5 MgCl2, 5 KCl, 0.2% (w/v) bacitracin, 0.003% (w/v) saponin and is used to dilute radioligand and membrane preparation. Binding reactions are carried out in 0.1 mL total reaction volume in a polystyrene 96 deep-well assay block. […] Test compounds and non-specific binding (NSB—defined as 300 nM rAMY) are added to aliquots of radioactivity buffer. […] The binding reaction is initiated by the addition of 0.05 mL of 200 μg/mL hAMY1R diluted in assay buffer to the radioactivity. Assay blocks are gently vortexed, sealed with parafilm, and incubated at RT for approximately 20 hours. […]
# [3] = target: T3, human calcitonin receptor (hCTR) (Homo sapiens, UniProt P30988); assay: hCTR competitive radioligand binding filter assay (125I-hCT); details: ± SE; membranes of hCTR overexpressing cells
# T3 construct: expressed in transfected cells; host or cells: membranes of UM-UC-3 (UMUC3) cells stably expressing human CTa
# T3 sequence (P30988 25-474): T2 sequence (P30988 25-474)
# Experimental: as §4
# The receptor binding affinity (Ki) of rAMY, hCT, and hAMY agonist peptides on hCTR membranes is determined from a competitive radioligand binding filter assay.
# amylin receptor = target: T4, amylin receptor (Homo sapiens, UniProt P30988); details: background statement; cited from earlier work
# T4 sequence (P30988 25-474): T2 sequence (P30988 25-474)
smiles,measurement,setting,value
"CC[C@H](C)[C@H](NC(=O)[C@@H]1CCCN1C(=O)CNC(=O)[C@H](Cc1ccccc1)NC(=O)[C@H](CC(N)=O)NC(=O)[C@H](CC(N)=O)NC(=O)[C@H](CO)NC(=O)[C@H](CO)NC(=O)[C@H](Cc1c[nH]cn1)NC(=O)[C@@H](NC(=O)[C@H](CC(C)C)NC(=O)[C@H](Cc1ccccc1)NC(=O)[C@H](CC(N)=O)NC(=O)[C@H](C)NC(=O)[C@H](CC(C)C)NC(=O)[C@H](CCCNC(=N)N)NC(=O)[C@H](CCC(N)=O)NC(=O)[C@@H](NC(=O)[C@H](C)NC(=O)[C@@H]1CSSC[C@H](NC(=O)[C@@H](N)CCCCN)C(=O)N[C@@H](CC(N)=O)C(=O)N[C@@H]([C@@H](C)O)C(=O)N[C@@H](C)C(=O)N[C@@H]([C@@H](C)O)C(=O)N1)[C@@H](C)O)C(C)C)C(=O)N[C@@H](CC(C)C)C(=O)N1CCC[C@H]1C(=O)N1CCC[C@H]1C(=O)N[C@H](C(=O)N[C@@H](CC(N)=O)C(=O)N[C@H](C(=O)NCC(=O)N[C@@H](CO)C(=O)N[C@@H](CC(N)=O)C(=O)N[C@H](C(=O)N[C@@H](Cc1ccc(O)cc1)C(N)=O)[C@@H](C)O)C(C)C)[C@@H](C)O [Compound XV, reference compound]",EC50,hAMY1R [1],0.043 ± 0.0044 nM
same,EC50,human CT receptors,2.4 ± 0.402 nM
same,Ki,hAMY1R [2],0.0196 ± 0.002 nM
same,Ki,[3],0.256 ± 0.087 nM
same,times more potent on the amylin receptor than on the calcitonin receptor,amylin receptor,14 times
